Measurements reported in patent US8163909B2, “Substituted hydroxyethyl amine compounds as beta-secretase modulators and methods of use” (Amgen Inc., priority 2007, dated 2012).
Like-named read-outs stand apart in the source and are kept apart here.

Protein sequences, listed by entry. Tags and fused reporters are not part of them. Residues count along the entry.
UniProt P10635, whole entry: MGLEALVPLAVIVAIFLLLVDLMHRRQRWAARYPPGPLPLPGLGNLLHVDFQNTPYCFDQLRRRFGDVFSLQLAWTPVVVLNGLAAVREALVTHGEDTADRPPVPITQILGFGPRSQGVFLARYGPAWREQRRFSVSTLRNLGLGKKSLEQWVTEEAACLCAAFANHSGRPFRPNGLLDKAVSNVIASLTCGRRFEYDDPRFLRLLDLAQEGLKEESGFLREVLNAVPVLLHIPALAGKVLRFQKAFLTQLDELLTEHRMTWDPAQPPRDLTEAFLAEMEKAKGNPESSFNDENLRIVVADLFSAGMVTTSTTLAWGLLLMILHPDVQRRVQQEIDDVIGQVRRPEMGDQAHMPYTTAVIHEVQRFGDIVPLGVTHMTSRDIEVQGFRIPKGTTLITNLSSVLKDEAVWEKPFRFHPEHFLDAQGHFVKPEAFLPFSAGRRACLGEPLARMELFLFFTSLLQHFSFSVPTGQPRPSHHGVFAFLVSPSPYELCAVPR
UniProt P08684, 2-503 limits assumed: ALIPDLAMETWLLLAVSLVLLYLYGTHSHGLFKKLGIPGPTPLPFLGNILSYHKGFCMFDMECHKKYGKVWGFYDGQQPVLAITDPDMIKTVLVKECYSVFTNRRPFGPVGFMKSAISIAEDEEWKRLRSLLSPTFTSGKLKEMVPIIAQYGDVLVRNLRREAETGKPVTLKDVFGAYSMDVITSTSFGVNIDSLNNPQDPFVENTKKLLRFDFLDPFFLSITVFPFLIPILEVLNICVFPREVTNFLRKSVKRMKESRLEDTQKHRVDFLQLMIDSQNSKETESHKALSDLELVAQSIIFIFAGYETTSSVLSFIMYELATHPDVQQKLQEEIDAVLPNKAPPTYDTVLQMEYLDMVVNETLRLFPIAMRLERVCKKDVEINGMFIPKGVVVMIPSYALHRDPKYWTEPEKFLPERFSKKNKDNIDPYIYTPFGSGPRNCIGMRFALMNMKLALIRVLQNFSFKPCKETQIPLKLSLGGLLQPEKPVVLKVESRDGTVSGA
UniProt P56817, 46-501 limits assumed: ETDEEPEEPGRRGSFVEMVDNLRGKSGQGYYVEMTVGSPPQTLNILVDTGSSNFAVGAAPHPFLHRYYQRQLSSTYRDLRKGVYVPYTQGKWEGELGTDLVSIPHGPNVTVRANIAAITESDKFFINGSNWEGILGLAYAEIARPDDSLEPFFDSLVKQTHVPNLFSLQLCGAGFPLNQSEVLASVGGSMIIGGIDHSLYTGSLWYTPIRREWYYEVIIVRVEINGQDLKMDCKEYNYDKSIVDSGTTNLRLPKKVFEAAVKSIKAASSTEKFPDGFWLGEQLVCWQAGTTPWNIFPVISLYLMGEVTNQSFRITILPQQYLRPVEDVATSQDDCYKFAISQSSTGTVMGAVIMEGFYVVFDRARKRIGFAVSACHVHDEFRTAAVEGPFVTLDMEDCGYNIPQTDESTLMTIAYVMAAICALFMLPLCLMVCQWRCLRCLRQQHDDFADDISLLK

Legend:
[1] = Microsomal stability assay, human liver microsomes; type: in vitro ADME;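 also: pooled human liver microsomes at 0.25 mg/mL with 1 µM compound and NADPH at 37 °C, pH 7.4, for 30 min, unchanged parent quantified by LC-MS/MS against the 0 min sample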
[2] = biological target: CYP2D6 (Homo sapiens, UniProt P10635); assay: CYP2D6 inhibition assay (bufuralol, pooled human liver microsomes); type: in vitro ADME; conditions: read-out: 2D6 IC50
[3] = tested on: Aβ40 in conditioned medium of cells stably expressing Amyloid Precursor Protein (APP); assay: In vitro BACE cell-based assay (Aβ40 in conditioned medium, sandwich ELISA); conditions: read-out: HEK cell assay;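 also: compounds added as a dilution series, secreted peptide quantified by europium time-resolved fluorescence readout, potency fitted from percent of control versus compound concentration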
[4] = biological target: CYP3A (Homo sapiens, UniProt P08684); conditions: read-out: 3A4 IC50;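 also: inhibition of CYP3A-mediated 1-hydroxymidazolam formation after 10 min incubation with NADPH, quantified by HPLC MS relative to metabolite produced without test compound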
[5] = biological target: Beta Secretase enzyme (BACE) (Homo sapiens, UniProt P56817); assay: In vitro enzymatic BACE FRET (fluorescence resonance energy transfer) assay; type: biochemical; conditions: read-out: BACE1 FRET assay;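 also: fluorescence read after 1 h with 50 nM quenched peptide substrate spanning the BACE cleavage site, in pH 4.2 acetate buffer containing 10% DMSO and nonionic detergent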
[6] = Microsomal stability assay, rat liver microsomes; type: in vitro ADME;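 also: rat liver microsomes (0.25 mg/mL) with about 1 µM compound plus 1 mM NADPH, pH 7.4, 37 °C for 30 min, parent left measured by LC-MS/MS against 0 min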

| Structure (SMILES) | HLM ([1]; human liver microsomal data) | IC50 ([2]; CYP enzyme inhibition) | IC50 ([3]; HEK cells) | IC50 ([4]; CYP enzyme inhibition) | IC50 ([5]; BACE enzyme assay) | RLM ([6]; rat liver microsomal data) | HLM ([1]; human liver microsomes) | IC50 ([2]; CYP2D6 inhibition) | IC50 ([3]; HEK cell-based assay IC50) | IC50 ([4]; CYP3A4 inhibition) | IC50 ([5]; BACE enzyme assay IC50) | RLM ([6]; rat liver microsomes) | IC50 ([3]; cell-based assay, HEK cells, IC50's in uM) | IC50 ([5]; BACE enzyme assay, IC50's in uM) |
| --- | --- | --- | --- | --- | --- | --- | --- | --- | --- | --- | --- | --- | --- | --- |
| COc1cc(C[C@H](NC(=O)[C@@H](C)OC)[C@H](O)CN[C@H]2CC3(CCC3)Oc3ncc(CC(C)(C)C)cc32)ccn1 | 194 µL/min/mg | 3000 nM | 0.028 µM | 1000 nM | 0.02 µM | 125 µL/min/mg |  |  |  |  |  |  |  |  |
| COCC(=O)N[C@@H](Cc1cc(F)cc(-c2nccs2)c1)[C@H](O)CN[C@H]1C[C@]2(C[C@H](O)C2)Oc2ncc(CC(C)(C)C)cc21 |  |  |  |  |  |  | 86 µL/min/mg | 11200 nM | 0.005 µM | 600 nM | 0.006 µM | 199 µL/min/mg |  |  |
| COCC(=O)N[C@@H](Cc1cc(F)cc(-c2nccs2)c1)[C@H](O)CN[C@H]1CC2(CC(C)C2)Oc2ncc(CC(C)(C)C)cc21 (some centres unmarked) |  |  |  |  |  |  | 50 µL/min/mg | 600 nM | 0.02 µM | ≤ 30 nM | 0.005 µM | 111 µL/min/mg |  |  |
| CO[C@H](C)C(=O)N[C@@H](Cc1cc(F)cc(-c2nccs2)c1)[C@H](O)CN[C@H]1C[C@]2(C[C@H](OC)C2)Oc2ncc(CC(C)(C)C)cc21 |  |  |  |  |  |  | 192 µL/min/mg | 1700 nM | 0.027 µM | 300 nM | 0.016 µM | 497 µL/min/mg |  |  |
| CC(C)(C)Cc1cnc2c(c1)[C@@H](NC[C@@H](O)[C@H](Cc1cc(F)cc(-c3nccs3)c1)NC(=O)C1CC1)CC1(CCC1)O2 | 62 µL/min/mg |  |  | 200 nM |  | 74 µL/min/mg |  |  |  |  |  |  | 0.024 µM | 0.008 µM |
| CC(=O)N[C@@H](Cc1cccc(F)c1)[C@H](O)CN[C@@H]1CC2(CCC2)Oc2c1cc(CC(C)(C)C)nc2-n1ccnc1 | 50 µL/min/mg | 1700 nM | 1.95 µM | 100 nM | 1.74 µM | 286 µL/min/mg |  |  |  |  |  |  |  |  |
| COCC(=O)N[C@@H](Cc1cc(F)cc(-c2nccs2)c1)[C@H](O)CN[C@H]1C[C@]2(C[C@H](OC)C2)Oc2ncc(CC(C)(C)C)cc21 |  |  |  |  |  |  | 190 µL/min/mg | 3100 nM | 0.014 µM | 500 nM | 0.012 µM | 426 µL/min/mg |  |  |
